According to ChEMBL document CHEMBL1140006, “2-Cycloalkyl phenoxyacetic acid CRTh2 receptor antagonists” (Bioorg Med Chem Lett, 2007):

Organism: Homo sapiens
Experiment: Protein binding in human plasma
Settings: read-out: PPB

O=C(O)COc1ccc(Cl)cc1C1CCCCCC1
fraction unbound: < 0.001
